## Antibody variant affinities, Ab-14 light chain, assay 1

Source: Engelhart et al. 2022 (doi:10.1038/s41597-022-01779-4), MIT Lincoln Laboratory and A-Alpha Bio; data file from the FLAb repository.

Target: peptide PDVDLGDISGINAS, taken from heptad repeat 2 (HR2) of SARS-CoV-2 spike.

Parent scFv Ab-14: VH joined to VL by a (GGGGS)3 linker. Changes lie in the light chain CDRs alone.
VH: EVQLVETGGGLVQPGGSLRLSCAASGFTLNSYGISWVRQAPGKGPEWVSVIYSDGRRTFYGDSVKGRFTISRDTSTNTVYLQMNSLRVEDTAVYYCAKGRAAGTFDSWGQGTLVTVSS
VL: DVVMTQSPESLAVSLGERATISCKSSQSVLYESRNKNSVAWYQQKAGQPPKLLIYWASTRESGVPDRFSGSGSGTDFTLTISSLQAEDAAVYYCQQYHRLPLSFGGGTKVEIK

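Variants in AAYL50 differ from the parent at up to three CDR positions; double and triple changes were sampled at random. In AlphaSeq, yeast of one mating type display the scFv and yeast of the other type display the target. Mating (16 h, 30 °C) was followed by selection of diploids and sequencing of their barcodes. Scores were corrected for input abundance and mapped to Kd with protein pairs of known affinity run in the same pool. Each pool was mated in three replicate cultures.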

Each variant is given by its three light chain CDRs, as the data file delimits them; those of the parent are KSSQSVLYESRNKNSVA, WASTRES, QQYHRLPLS.
Every variant below is changed at Q27 of the VL (sequential numbering).
Affinities are written as log10 Kd with Kd in nM; a lower number is a better binder.
A mean of the replicates is given; it leaves out those without a signal.
"no signal" means that the variant was in the library but no mating with the target was seen in any replicate; the authors take this as a sign of poor binding, and no number exists.
Parent in this assay: reference entry 0.65, copy in this library 1.68.
Nonspecific signal, from three strains lacking the peptide, appeared in 18% of pairings of library AAYL50, centred on 4.19 (5% of these signals below 2.99); values are not corrected for it.

With KSSKSVLYESRNKNSVA, WASTRES, SQYHRLPLS the result was 1.25 (3 of 3 replicates).
With KSSVSVLYESRNKNSVA, WVTTRES, QQYHRLPLS the result was 2.33 (3 of 3 replicates).
With KNSFSVLGESRNKNSVA, WASTRES, QQYHRLPLS the result was 0.61 (3 of 3 replicates).
With KSSYSVLYESHNKNSVA, WASTRES, QQCHRLPLS the result was 2.84 (1 of 3 replicates).
With KSSNSVLYESRNKISVA, WASTRES, QQMHRLPLS the result was no signal (0 of 3 replicates).
With KSSWGTLYESRNKNSVA, WASTRES, QQYHRLPLS the result was 0.63 (3 of 3 replicates).
With KSSDSVLYESRNKNDVA, WASTFES, QQYHRLPLS the result was no signal (0 of 3 replicates).
With KSSYMVLWESRNKNSVA, WASTRES, QQYHRLPLS the result was 2.78 (1 of 3 replicates).
With KSSISVLYESRNKRSVA, WVSTRES, QQYHRLPLS the result was 3.99 (3 of 3 replicates).
With KSSGSVLYESRNKNGVA, WASTRES, QQYLRLPLS the result was 2.39 (3 of 3 replicates).
With PSSGSVLRESRNKNSVA, WASTRES, QQYHRLPLS the result was 2.25 (1 of 3 replicates).
With KSSFSVLYESRNKNSVA, WASTRCS, QQIHRLPLS the result was 3.22 (3 of 3 replicates).
With KSSGSVMYESRNKNSVA, WASTRES, QTYHRLPLS the result was 1.78 (3 of 3 replicates).
With KSSWSVLTESRNKNSVA, WASRRES, QQYHRLPLS the result was 1.40 (3 of 3 replicates).
With KSSKSVLYESRNKNSVA, WASLRES, QQYHRPPLS the result was 1.80 (3 of 3 replicates).
With KSSWSVLYESRNKNSNA, WAETRES, QQYHRLPLS the result was 2.87 (1 of 3 replicates).
With KSSPSVLYESRNKSSVA, WASTRES, QQYHRKPLS the result was 3.90 (3 of 3 replicates).
With KSSSSVLYESRNKNSVA, WASTRES, QQYWRLPLS the result was 1.03 (3 of 3 replicates).
With KSSTSVLYESRNKNSVA, WASTRTS, QQYHRLPLS the result was 0.87 (3 of 3 replicates).
With KSSYSVLYESRNKNSVH, WASTRES, QQYHRLPLS the result was 3.68 (1 of 3 replicates).
With KHSESVLYESRNKNSVA, WASTRES, QCYHRLPLS the result was 2.22 (3 of 3 replicates).
With KSSCKVLYECRNKNSVA, WASTRES, QQYHRLPLS the result was no signal (0 of 3 replicates).
With KSSGSVLYESRNKNSTA, WASTRES, QQQHRLPLS the result was no signal (0 of 3 replicates).
With KSSHSVLPESRNKNSCA, WASTRES, QQYHRLPLS the result was no signal (0 of 3 replicates).
With KSSRSVLYESRNLNSVA, WASTRES, QQYHRLPLY the result was 0.91 (3 of 3 replicates).
With KSSKIVLYESRNKNSCA, WASTRES, QQYHRLPLS the result was no signal (0 of 3 replicates).
With KSDISVLYESRNKNSVA, WASTRES, WQYHRLPLS the result was no signal (0 of 3 replicates).
With TSSTSVLYESRNKNSVA, WAPTRES, QQYHRLPLS the result was 3.12 (2 of 3 replicates).
With KSSASVLYESRNKNSVA, WASTRES, QQVHRLPLS the result was 4.68 (2 of 3 replicates).
With KSSLSVLYESRNKNSVA, AASTQES, QQYHRLPLS the result was 0.75 (3 of 3 replicates).
With KSKISVLYESRNKNSVA, WASTRER, QQYHRLPLS the result was 1.82 (3 of 3 replicates).
With NSSDSVLYESRNKNSVA, WASTRES, QQYHRLPLS the result was 0.94 (3 of 3 replicates).
With KSSHSVLYESRNKNSVA, WASTREK, QQYHRLPLL the result was 2.44 (3 of 3 replicates).
With KSSFSELYESRNKISVA, WASTRES, QQYHRLPLS the result was 1.71 (3 of 3 replicates).
With KSSHSVLYESRNKNSVA, WGSTRES, QQYHRLWLS the result was 0.94 (3 of 3 replicates).
With KSSHSVLYESRNKNSVA, WKSTCES, QQYHRLPLS the result was no signal (0 of 3 replicates).
With KSCDSVLYESRNGNSVA, WASTRES, QQYHRLPLS the result was 2.04 (3 of 3 replicates).
With KSSISVLYESRNKNHVA, WASTRES, QQYHRLPLS the result was 4.23 (3 of 3 replicates).
With KSSPEVLYESRNKNSVA, WASTRES, QQYHRLPHS the result was 0.90 (3 of 3 replicates).
With KSSDSVLYESRNKNSVA, WATTRES, IQYHRLPLS the result was no signal (0 of 3 replicates).
With KSSYSVLYESRNKNMVA, WASTRES, QQYHRLALS the result was no signal (0 of 3 replicates).
With CSSMSVLYESRNKNSVA, WASTYES, QQYHRLPLS the result was no signal (0 of 3 replicates).
With KSSISVLYESRNKNSVI, WASTRES, QQYHRVPLS the result was 4.94 (2 of 3 replicates).
With KSSGSVPYESRNKNSVA, WASTRES, QQYHRLPLS the result was 0.57 (3 of 3 replicates).
With KSSPSVLYESRNKNSVA, WASTRES, QQYHRLPLS the result was 2.48 (3 of 3 replicates).
With KRSLSVLYESRNKNSVA, WASTRES, YQYHRLPLS the result was no signal (0 of 3 replicates).
With KSSGSVLYESRNKNSVA, WASTRES, NQYHRLPLF the result was 3.10 (1 of 3 replicates).
With KSSYSVLYESRNKNSQA, WASTRES, QQDHRLPLS the result was no signal (0 of 3 replicates).